For two compounds, IC50 and ERH results are on record in ChEMBL document CHEMBL3856233, “Identification of (R)-(2-Chloro-3-(trifluoromethyl)phenyl)(1-(5-fluoropyridin-2-yl)-4-methyl-6,7-dihydro-1H-imidazo[4,5-c]pyridin-5(4H)-yl)methanone (JNJ 54166060), a Small Molecule Antagonist of the P2X7 receptor” (J Med Chem, 2016).

Sequences of proteins named here, by UniProt entry; tags and fusion partners are left off.
UniProt P10632, whole entry: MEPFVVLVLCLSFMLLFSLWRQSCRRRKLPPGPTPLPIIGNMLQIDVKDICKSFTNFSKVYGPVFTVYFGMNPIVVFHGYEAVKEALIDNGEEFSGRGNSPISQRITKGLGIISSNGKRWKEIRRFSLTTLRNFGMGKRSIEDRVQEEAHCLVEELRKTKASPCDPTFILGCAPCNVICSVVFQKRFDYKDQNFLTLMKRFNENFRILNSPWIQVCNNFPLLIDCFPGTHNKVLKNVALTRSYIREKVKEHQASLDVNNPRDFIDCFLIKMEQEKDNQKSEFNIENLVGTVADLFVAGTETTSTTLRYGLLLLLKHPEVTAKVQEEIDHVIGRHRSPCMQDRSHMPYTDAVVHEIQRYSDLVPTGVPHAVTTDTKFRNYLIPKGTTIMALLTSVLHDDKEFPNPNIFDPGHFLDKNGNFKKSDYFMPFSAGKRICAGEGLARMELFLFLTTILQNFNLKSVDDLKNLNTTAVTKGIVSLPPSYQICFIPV
UniProt P05177, whole entry: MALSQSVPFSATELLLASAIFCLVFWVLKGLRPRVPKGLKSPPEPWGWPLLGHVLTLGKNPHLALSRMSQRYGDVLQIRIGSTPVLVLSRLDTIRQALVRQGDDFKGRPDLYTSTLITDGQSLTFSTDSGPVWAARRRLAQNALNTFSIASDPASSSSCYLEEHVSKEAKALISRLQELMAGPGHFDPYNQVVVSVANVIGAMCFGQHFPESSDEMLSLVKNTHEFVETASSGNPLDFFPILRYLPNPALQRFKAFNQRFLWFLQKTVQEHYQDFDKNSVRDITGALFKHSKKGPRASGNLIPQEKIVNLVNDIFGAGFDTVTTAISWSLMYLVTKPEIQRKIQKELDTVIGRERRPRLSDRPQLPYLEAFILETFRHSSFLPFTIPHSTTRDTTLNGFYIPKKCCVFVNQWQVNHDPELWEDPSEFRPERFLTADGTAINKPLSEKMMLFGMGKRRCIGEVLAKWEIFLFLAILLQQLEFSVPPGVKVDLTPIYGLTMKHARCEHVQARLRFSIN
UniProt P08684, whole entry: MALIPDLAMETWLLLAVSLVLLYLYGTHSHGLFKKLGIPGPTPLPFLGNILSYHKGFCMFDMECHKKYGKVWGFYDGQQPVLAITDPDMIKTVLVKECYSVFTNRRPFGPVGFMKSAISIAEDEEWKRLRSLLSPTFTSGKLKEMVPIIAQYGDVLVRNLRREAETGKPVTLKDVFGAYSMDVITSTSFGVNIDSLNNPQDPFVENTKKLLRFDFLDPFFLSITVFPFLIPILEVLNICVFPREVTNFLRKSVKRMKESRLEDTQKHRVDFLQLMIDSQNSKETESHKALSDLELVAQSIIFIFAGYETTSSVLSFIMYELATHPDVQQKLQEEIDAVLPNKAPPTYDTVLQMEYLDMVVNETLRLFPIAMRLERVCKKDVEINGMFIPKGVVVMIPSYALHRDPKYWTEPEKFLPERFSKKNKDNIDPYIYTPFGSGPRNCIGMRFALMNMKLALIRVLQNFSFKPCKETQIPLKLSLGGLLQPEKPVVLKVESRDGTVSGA
UniProt P10635, whole entry: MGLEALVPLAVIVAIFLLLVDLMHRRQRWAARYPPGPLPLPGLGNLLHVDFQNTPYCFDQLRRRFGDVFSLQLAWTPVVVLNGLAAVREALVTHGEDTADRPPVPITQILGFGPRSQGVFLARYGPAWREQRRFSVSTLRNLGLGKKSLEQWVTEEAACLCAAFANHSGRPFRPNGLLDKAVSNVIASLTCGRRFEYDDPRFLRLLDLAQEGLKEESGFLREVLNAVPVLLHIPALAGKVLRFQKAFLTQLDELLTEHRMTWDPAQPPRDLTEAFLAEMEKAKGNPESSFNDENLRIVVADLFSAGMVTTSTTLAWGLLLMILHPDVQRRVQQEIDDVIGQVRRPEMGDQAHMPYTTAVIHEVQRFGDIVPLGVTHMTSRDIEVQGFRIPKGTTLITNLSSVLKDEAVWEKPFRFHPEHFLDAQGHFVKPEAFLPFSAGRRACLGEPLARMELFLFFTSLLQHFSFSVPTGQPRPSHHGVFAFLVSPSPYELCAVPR

By pIC50 is commonly meant −log10 of the IC50, conventionally taken in molar units.

SMILES strings stand for the structures. pIC50: −log10 of the molar value.

Data set [1] has as its target Cytochrome P450 2C8 (Homo sapiens, UniProt P10632). Kind of data set: Inhibition of CYP2C8 in human liver microsomes using paclitaxel as substrate after 15 mins by LC/MS/MS analysis. Type of data set: ADME. Background: Microsomes from liver hold many membrane-bound enzymes, among them those of drug oxidation.
For data set [2], the target named is Cytochrome P450 1A2 (Homo sapiens, UniProt P05177). Briefly: Inhibition of CYP1A2 in human liver microsomes using phenacetin as substrate after 15 mins by LC/MS/MS analysis. Type of data set: ADME.
The conditions of data set [3]: rat, microsomes, 1 h, 1 µM.
Data set [4] has as its target Cytochrome P450 3A4 (Homo sapiens, UniProt P08684). Kind of data set: Inhibition of CYP3A4 in human liver microsomes using midazolam as substrate assessed as reduction in 4-OH-midazolam formation by LC/MS/MS analysis. Type of data set: ADME, tissue-based.
For data set [5] the following is noted: human, microsomes, 1 h, 1 µM.
In data set [6] the target is Cytochrome P450 2D6 (Homo sapiens, UniProt P10635). Briefly: Inhibition of CYP2D6 in human liver microsomes using dextromethorphan as substrate after 15 mins by LC/MS/MS analysis. Type of data set: ADME.

`C[C@@H]1c2ncn(-c3ccc(F)cc3)c2CCN1C(=O)c1cccc(C(F)(F)F)c1Cl`: the pIC50 in data set [1] and in data set [2] was less than 5.00 throughout.

With `C[C@@H]1c2ncn(-c3ccc(F)cn3)c2CCN1C(=O)c1cccc(C(F)(F)F)c1Cl`, the ERH in data set [3] is reported as 0.64; in data set [5] it was 0.35. Moreover, the pIC50 in data set [4] and in data set [6] was less than 5.00 each time.
